As usually defined, the Kd is the constant that tells how readily two partners part at equilibrium.

The target in the test is T1, CCL8_HUMAN (human, UniProt P80075 24-99).
T1 sequence (looked up): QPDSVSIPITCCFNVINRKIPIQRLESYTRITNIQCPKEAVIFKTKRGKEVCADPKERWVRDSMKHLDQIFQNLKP

B1: HIS:SUMO:HD2 fusion protein (other)
peptide: EEDDYTAYAPLTCYFT
Molecule B1 returned a Kd of 143 nM. This lies in the sub-micromolar range.

These data come from US20260234188A1, “CHEMOKINE-BINDING PEPTIDES” (OXFORD UNIVERSITY INNOVATION, published 2026).
